Experimental findings from US11066399B2, “Ferroportin inhibitors” (Vifor (International) AG, priority 2015, dated 2021) are described below.

Each structure is given as a SMILES string. Where a name gives a salt, the structure may show the parent alone.

This assay deals with anemic Wistar rats. The assay can be described thus: Prevention of iron absorption in anemic rats. Type of assay: in vivo. To be noted: Rattus norvegicus, 3 h, Dose 30 mg/kg oral, 1 h before 0.5 mg/kg ferrous sulfate, read-out: Serum Iron Inhibition (%) at 3 h. The method, then:
To assess the in vivo efficacy of ferroportin (Fpn) inhibitors to block iron absorption, a series of Fpn inhibitors were tested in an anemic rat model for iron absorption. Wistar rats (3-4 weeks old, n=5, Janvier Labs) were fed a low iron diet (Provimi-Kliba, Cat. 2039) until their hemoglobin (Hb) values reach 7-8 g/dl one day before dosing of the Fpn inhibitor compounds. One hour before oral application of 0.5 mg/kg of ferrous sulfate, test compounds formulated in methyl cellulose or Cremophor were dosed orally. Blood samples were taken by tail vein puncture one hour before administration of iron (−1 h), immediately after dosing of the Fpn inhibitors (0 h) and one hour (1 h), three hours (3 h) and occasionally up to 6 hours (6 h) after dosing of the test compounds. Serum iron levels were measured (Abbott Diagnostics, Cat. 6K95) and inhibition of the rise of serum iron three hours after dosing of the test compound was calculated as a measure for efficacy of the Fpn inhibitors in blocking iron absorption (Table 7).

As to `Cc1cccnc1CNC(=O)c1csc(CCNCc2nc3ccccc3[nH]2)n1` [Example Compound No. 55, 2-{2-[(1H-1,3-Benzodiazol-2-ylmethyl)amino]ethyl}-N-[(3-methylpyridin-2-yl)methyl]-1,3-thiazole-4-carboxamide Trihydrochloride], the inhibition in vivo at 30 mg/kg came out at 89%.
